Source: ChEMBL document CHEMBL3112560 (Bioorg Med Chem Lett, 2014)
pIC50: −log10 of the molar value.

Assays:
Rattus norvegicus = species on record: Rattus norvegicus; experiment: Inhibition of VGLUT in rat brain assessed as [3H]-L-Glu uptake into synaptic vesicles at 250 uM relative to control; type: tissue-based
[1] = Inhibition of VGLUT-mediated [3H]-L-Glu uptake into synaptic vesicles in rat brain; type: tissue-based

- pIC50 [1]: 3.92
Structure (SMILES): C[C@]12CC[C@@H]3c4ccc(OS(=O)(=O)O)cc4CC[C@H]3[C@@H]1CCC2=O [ESTRONE SULFURIC ACID]
- inhibition (Rattus norvegicus): 52%
